# Screening data (PubChem)
# A selection: hits, their analogues and other compounds. The true share with any hit is near 1.2%.
# TbMetRS inhib – T. brucei MetRS inhibitors, primary screen, biochemical, luminescence | purified T. brucei MetRS, ATP depletion, Kinase-Glo luminescence | inhibition, % at 11.9 µM | 360,000 tested, 0.4% active | AID 624268, 2012;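 active = inhibition above a per-plate cutoff of the control wells' mean inhibition plus 3 SD, cut at about 5.5% in these data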;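 note: 0% = DMSO wells median and 100% = median of wells with control inhibitor compound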
#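 Dosing: 11.9 µM compound single dose, 0.9% DMSO; Assay system: purified T. brucei MetRS enzyme; Measured by: Kinase-Glo luciferase luminescence reporting remaining unconsumed ATP; Schedule: 15 min plus 2 h at 25 °C.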
# Pemphigus Ab inh – inhibitors of pemphigus antibody binding to DSG3, primary screen, biochemical, bead-based, flow cytometry, scFv-GFP; DSG3-coupled beads, scFv-anti-DSG3-GFP binding; stronger effect = lower value; binding (percent of control), % at 10 µM; AID 588358, 2011; 310,000 tested, 0.48% active;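 active = binding more than 3 SD below its plate's average and above zero; inconclusive = below that plate limit but binding exactly zero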;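 note: hits lower antibody fragment binding to DSG3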
# Rce1 inhib – yeast Rce1p protease inhibitors, primary screen, biochemical, fluorescence, cell-free homogeneous; 290,000 tested, 0.27% active; yeast membranes, quenched prenylated peptide cleavage fluorescence; calls only; AID 2563, 2010; CAAX prenyl protease 2 (Saccharomyces cerevisiae (strain ATCC 204508 / S288c)), Q03530;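 active = fall in fluorescence gain of 50% or more versus controls, with final raw signal at or below 3038400; inconclusive = same 50% fall but final raw signal above 3038400; inactive = fall in fluorescence gain under 50%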;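 note: plate controls were neutral control wells for no effect and wells lacking membranes for full effect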
# Arrestin-AP2 inh – inhibitors of beta-arrestin/AP2 binding, primary screen, biochemical, GPCR trafficking, flow cytometry | FITC-arrestin peptide / GST-AP2 beads; AP2 beta2 appendage carries R879A mutation | inhibition, % at 10 µM | 340,000 tested, 0.31% active | AID 504490, 2011;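 active = inhibition above a set limit, near 3 SD of compounds lacking own fluorescence, cut at about 54% in these data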;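 note: plate controls were DMSO wells for no effect and 5 µM unlabelled arrestin peptide for full effect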
#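 System: GST-AP2 R879A glutathione beads. Medium: PBS with 0.05% Tween 20 and 0.1% BSA. Also added: FITC-arrestin peptide, 50 nM. Incubation: 12 min plus 1 h, RT. Measured by: high-throughput flow cytometry of beads, ex 488, em 535 nm. Evaluation: percent drop in bead-associated FITC signal.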
# Yeast UUG start – modulators of yeast start codon fidelity, primary screen, whole organism, S. cerevisiae, single point, plate reader | S. cerevisiae UUG-firefly luciferase reporter, luminescence/redox ratio | activity score, % at 18.7 µM | hit rate 0.13% among 350,000;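 active = replicate mean at a twofold rise or more, about +100% in these data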;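 note: firefly luciferase made from a UUG start codon reports start codon fidelity; reporter light over untreated wells divided by growth signal over untreated wells; some hits fall short of that in this replicate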
# * = called active by the depositor; i = inactive; u = inconclusive; x = no result given; + = active, no number.
# Keys: A = TbMetRS inhib; B = Pemphigus Ab inh; C = Rce1 inhib; D = Arrestin-AP2 inh; E = Yeast UUG start
molecule: O=C(COc1cccnc1[N+](=O)[O-])Nc1cc(S(=O)(=O)N2CCCCC2)ccc1Cl
  A: 0; B: 85*; C: i; D: 22; E: -25
molecule: COc1ccc(S(=O)(=O)N2CCCCC2)cc1NC(=O)CCNC(=O)c1ccc(Cl)cc1
  A: 0; B: 50*; C: x; D: 1; E: -6
molecule: C[C@@H]1CN([C@H](C)CO)C(=O)c2cc(NC(=O)Cc3ccccc3)ccc2O[C@@H](C)CCCCO[C@H]1CN(C)S(=O)(=O)c1cccs1
  A: x; B: x; C: x; D: x; E: -14
molecule: COc1ccc(S(=O)(=O)Nc2ccc3c(c2)C(=O)N([C@H](C)CO)C[C@H](C)[C@H](CN(C)Cc2ccccc2)O3)cc1
  A: x; B: x; C: x; D: x; E: 15
molecule: CC(C)[C@H](NC(=O)OCc1ccccc1)C(=O)OCC(=O)Nc1c(F)cccc1F
  A: 0; B: 102; C: +; D: 8; E: 1
molecule: CN(C)C(=O)C[C@@H]1C[C@H]2c3cc(NC(=O)c4ccc5c(c4)OCO5)ccc3O[C@H]2[C@H](CO)O1
  A: x; B: x; C: x; D: x; E: 10
molecule: O=C(C[C@@H]1C[C@@H]2c3cc(NC(=O)c4cccnc4)ccc3O[C@@H]2[C@H](CO)O1)NCc1ccc(Oc2ccccc2)cc1
  A: x; B: x; C: x; D: x; E: -19
molecule: Cc1ccc(C2C3=C(CC(C)(C)CC3=O)Nc3n[nH]c(C)c32)cc1 (stereo not given)
  A: -1; B: 97; C: i; D: 12; E: -7
molecule: Cc1[nH]nc2c1C(c1ccc(F)cc1)C1=C(CC(C)(C)CC1=O)N2 (stereo not given)
  A: 0; B: 104; C: +; D: 2; E: -14
molecule: C[C@H]1CN([C@@H](C)CO)C(=O)Cc2cc(NC(=O)Nc3ccc(C(F)(F)F)cc3)ccc2O[C@@H]1CN(C)S(=O)(=O)c1cccs1
  A: x; B: x; C: x; D: x; E: -6
molecule: CN1CCN(C(=O)C[C@H]2C[C@H]3c4cc(NC(=O)Nc5ccccc5F)ccc4O[C@H]3[C@@H](CO)O2)CC1
  A: x; B: x; C: x; D: x; E: -11
molecule: C[C@@H]1CN([C@H](C)CO)C(=O)c2cc(C3=CCCC3)cnc2O[C@@H]1CN(C)Cc1ccccc1
  A: x; B: x; C: x; D: x; E: -1
molecule: CCCNC(=O)CCc1c(C)nc2nc(-c3cc(OC)cc(OC)c3)nn2c1C
  A: -1; B: x; C: i; D: 4; E: -9
molecule: CCOC(=O)C(Cc1ccccc1)NC(=O)CCc1c(C)nc2ncnn2c1C (stereo not given)
  A: 0; B: x; C: i; D: 2; E: 0
molecule: CCCCNC(=O)CCc1c(C)nc2nc(-c3cc(OC)cc(OC)c3)nn2c1C
  A: -1; B: -1.6*; C: i; D: 24; E: -1
molecule: CCOC(=O)C(Cc1ccccc1)NC(=O)CCc1c(C)nc2nc(C)nn2c1C (stereo not given)
  A: 0; B: 86*; C: x; D: 21; E: -17
molecule: N#Cc1nc(-c2ccc(F)cc2)oc1N1CCN(C(=O)c2ccco2)CC1
  A: 0; B: 106; C: i; D: -6; E: -15
molecule: COc1cccc(-c2nc(C#N)c(N3CCN(C(=O)c4ccco4)CC3)o2)c1
  A: -1; B: x; C: +; D: 18; E: -6
molecule: CCCn1c(O)c(N=NC(=O)CNC(=O)Cc2ccc(OC)cc2)c2ccccc21
  A: 0; B: u; C: +; D: 40; E: -23
molecule: Cn1c(O)c(N=NC(=O)CNC(=O)c2ccccc2)c2ccccc21
  A: 0; B: -36*; C: i; D: -4; E: 77
molecule: Cn1c(O)c(N=NC(=O)CNC(=O)c2ccccc2)c2cc(Br)ccc21
  A: 0; B: x; C: i; D: 22; E: -10
molecule: CN(C)S(=O)(=O)c1ccc(Nc2ccc(-c3ccc4c(c3)OCCO4)nn2)cc1
  A: -1; B: 69*; C: x; D: -3; E: -17
molecule: CCN(CC)S(=O)(=O)c1ccc(Nc2ccc(-c3ccc4c(c3)OCCO4)nn2)cc1
  A: -1; B: 101; C: i; D: 8; E: x
molecule: Cc1cccc(S(=O)(=O)c2c(N)n(/N=C/c3ccccc3)c3nc4ccccc4nc23)c1
  A: -1; B: 89*; C: i; D: 19; E: -6
molecule: Nc1c(S(=O)(=O)c2ccccc2)c2nc3ccccc3nc2n1/N=C/c1cccc(O)c1
  A: -1; B: 91; C: i; D: 4; E: -7
molecule: COc1ccc(S(=O)(=O)Nc2ccc3c(c2)C(=O)N([C@@H](C)CO)C[C@H](C)[C@@H](CN(C)S(=O)(=O)c2ccc(C)cc2)O3)cc1
  A: x; B: x; C: x; D: x; E: -18
molecule: CC(C)CC#Cc1cnc2c(c1)C(=O)N([C@H](C)CO)C[C@@H](C)[C@@H](CN(C)Cc1cncnc1)O2
  A: x; B: x; C: x; D: x; E: 2
molecule: COc1ccccc1NC(=O)CN(c1ccc(C23CC4CC(CC(C4)C2)C3)cc1)S(C)(=O)=O
  A: 0; B: 104; C: +; D: 0; E: -18
molecule: CS(=O)(=O)N(CC(=O)O)c1ccc(C23CC4CC(CC(C4)C2)C3)cc1
  A: 0; B: 99; C: i; D: 35; E: -19
molecule: CC(C)CC#Cc1cnc2c(c1)C(=O)N([C@H](C)CO)C[C@H](C)[C@H](CN(C)C(=O)CN1CCOCC1)O2
  A: x; B: x; C: x; D: x; E: -1

# Reprinted at random: two records from the list.
# Keys: A = TbMetRS inhib; B = Pemphigus Ab inh; C = Rce1 inhib; D = Arrestin-AP2 inh; E = Yeast UUG start
molecule: CS(=O)(=O)N(CC(=O)O)c1ccc(C23CC4CC(CC(C4)C2)C3)cc1
  A: 0; B: 99; C: i; D: 35; E: -19
molecule: CN(C)S(=O)(=O)c1ccc(Nc2ccc(-c3ccc4c(c3)OCCO4)nn2)cc1
  A: -1; B: 69*; C: x; D: -3; E: -17

# Structural class, the compounds so far containing a cyano group (2)
# Keys: A = TbMetRS inhib; B = Pemphigus Ab inh; C = Rce1 inhib; D = Arrestin-AP2 inh; E = Yeast UUG start
molecule: N#Cc1nc(-c2ccc(F)cc2)oc1N1CCN(C(=O)c2ccco2)CC1
  A: 0; B: 106; C: i; D: -6; E: -15
molecule: COc1cccc(-c2nc(C#N)c(N3CCN(C(=O)c4ccco4)CC3)o2)c1
  A: -1; B: x; C: +; D: 18; E: -6

# (list continues)
# Keys: A = TbMetRS inhib; B = Pemphigus Ab inh; C = Rce1 inhib; D = Arrestin-AP2 inh; E = Yeast UUG start
molecule: COc1ccc(CN(C(=S)Nc2ccccc2)C2CC(=O)N(c3ccc(F)cc3)C2=O)cc1 (stereo not given)
  A: -1; B: 105; C: i; D: 6; E: -6
molecule: COc1ccc(CCN(C(=S)Nc2ccccc2)C2CC(=O)N(c3ccccc3)C2=O)cc1 (stereo not given)
  A: 16*; B: 100; C: i; D: 7; E: -10
molecule: O=C(C(Cc1ccccc1)N1C(=O)c2ccccc2C1=O)N1c2ccccc2CCc2ccccc21 (stereo not given)
  A: -1; B: 82; C: +; D: 4; E: x
molecule: CC(Sc1nnc(NC(=O)c2cc3ccccc3oc2=O)s1)c1ccccc1 (stereo not given)
  A: 0; B: 72*; C: i; D: 9; E: -12
molecule: CO[C@@H]1CN(C)C(=O)c2ccc(NS(C)(=O)=O)cc2OC[C@@H](C)N(C(=O)C2CCC2)C[C@@H]1C
  A: x; B: x; C: x; D: x; E: 4
molecule: Cc1nn(C)cc1C(C(=O)NC1CCCCC1)N(C(=O)Cc1cccs1)c1ccc(F)cc1 (stereo not given)
  A: 0; B: -2.6*; C: i; D: 5; E: x
molecule: CC(C)NC(=O)N(C)C[C@H]1Oc2ncc(-c3ccccc3F)cc2C(=O)N([C@H](C)CO)C[C@@H]1C
  A: x; B: x; C: x; D: x; E: -1
molecule: CNC(=S)N/N=C/c1c(C)nn(-c2cccc(Cl)c2)c1Cl
  A: -1; B: 27*; C: i; D: 5; E: -21
molecule: C/C(=N\NC(=S)NC1CCCCC1)c1ccccc1
  A: 0; B: 83*; C: i; D: 10; E: -36
molecule: C/C(=N\NC(=S)NC1CCCCC1)c1ccc(O)cc1
  A: -1; B: 119; C: i; D: 13; E: -32
molecule: O=C(NCC(=O)N1CCN(S(=O)(=O)/C=C/c2ccccc2)CC1)c1ccccc1F
  A: 0; B: 91; C: i; D: 3; E: x
molecule: O=C(NCC(=O)N1CCN(S(=O)(=O)/C=C/c2ccccc2)CC1)c1ccc(Cl)cc1
  A: 0; B: 73*; C: i; D: -5; E: -6
molecule: COc1ccc(C)cc1NC(=O)CCC(=O)Nc1ccc2nc(N3CCN(C)CC3)cc(C)c2c1
  A: x; B: x; C: +; D: x; E: x
molecule: Cc1ccc(C(=O)NC2CCN(CC(=O)NCc3cccs3)CC2)cc1
  A: -1; B: 122; C: i; D: -8; E: x
